{"source": "patent US20240262934A1", "about": "“STARCH-INDOLE-ACID DERIVATIVE, PREPARATION METHOD THEREFOR, AND USE THEREOF” (SHANDONG SHANWEI IMMUNOTECH CO., LTD., priority 2021, published 2024)", "conditions": "mouse, in vivo", "data": [{"substance": "indoleacetic acid derivatized high-amylose maize starch [HAMSIAA]", "values": [{"measurement": "content of IAA in blood serum", "value": "significantly increased"}, {"measurement": "content of IAA in feces", "value": "significantly increased"}]}]}
